Earlier results in publication PMC3187562 (ACS medicinal chemistry letters, 2011).

Tested on: HDAC7

**Q.** For `O=C(CCCCCCC(=O)Nc1ccccc1)NO` [compound 2, vorinostat], which “expression of HDAC7 in treated cells” value is on record?
**A.** selectively down-regulated
